# PubChem BioAssay AID652128 (Broad Institute, 2013)
# The list shows a part of the results, in another mix than the full data. Records with an inconclusive call do not appear. Active and inactive are the calls of the source.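 The calls were made as follows: active = fitted half-maximal concentration for signal loss at or below twice the highest dose tested, in every separate run (actives reach about 64 µM in these data); inconclusive = runs disagree, or flat partial signal loss, or poor fit; inactive = the rest.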
# Assay: DNA-binding compounds via dye displacement, dose response, artefact control for RAD52 inhibitor project, biochemical, fluorescence polarization, cherry-pick (AID 652128)
# Conditions: Salmon sperm DNA/acridine orange FP displacement
smiles,measurement,value
CN(CCCl)Cc1cc(Cl)c(NC2=NCCN2)c(Cl)c1,outcome,inactive
